Experimental data from ChEMBL document CHEMBL1150266, “Design and synthesis of conformationally constrained glucagon-like peptide-1 derivatives with increased plasma stability and prolonged in vivo activity” (J Med Chem, 2008).

The chains behind the UniProt entries cited, without tags or fusion partners.
UniProt P43220, whole entry: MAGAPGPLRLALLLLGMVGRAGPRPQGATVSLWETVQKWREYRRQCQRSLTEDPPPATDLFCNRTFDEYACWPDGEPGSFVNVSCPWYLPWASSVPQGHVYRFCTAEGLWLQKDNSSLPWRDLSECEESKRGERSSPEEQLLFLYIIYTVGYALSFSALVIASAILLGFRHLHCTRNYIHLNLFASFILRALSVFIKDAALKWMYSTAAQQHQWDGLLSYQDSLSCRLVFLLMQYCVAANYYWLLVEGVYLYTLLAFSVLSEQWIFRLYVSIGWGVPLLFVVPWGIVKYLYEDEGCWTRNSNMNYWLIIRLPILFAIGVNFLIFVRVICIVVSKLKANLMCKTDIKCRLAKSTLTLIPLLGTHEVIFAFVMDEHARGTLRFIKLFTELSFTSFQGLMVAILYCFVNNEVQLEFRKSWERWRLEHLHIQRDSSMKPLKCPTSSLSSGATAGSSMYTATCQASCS

Experiments:
[1] = biological target: T1, Glucagon-like peptide 1 receptor (Homo sapiens, UniProt P43220); assay: Agonist activity at human GLP1R expressed in CHO cells assessed as increase in cAMP level by cAMP-response element/luciferase activation assay; assay type: functional, cell-based
Plasma = assay: Stability in human plasma at 1000 ng/mL at 37 degC; assay type: ADME, cell-free
[2] = biological target: T1, Glucagon-like peptide 1 receptor; assay: Displacement of [125I]GLP1 from human GLP1R expressed in CHOK1 cells; assay type: cell-based, CHO-K1

## CC[C@H](C)[C@H](NC(=O)[C@H](Cc1ccccc1)NC(=O)[C@@H]1CCCCNC(=O)CC[C@H](NC(=O)CNC(=O)[C@H](CCC(=O)O)NC(=O)[C@H](CC(C)C)NC(=O)[C@H](Cc2ccc(O)cc2)NC(=O)[C@H](CO)NC(=O)[C@H](CO)NC(=O)[C@@H](NC(=O)[C@H](CC(=O)O)NC(=O)[C@H](CO)NC(=O)[C@@H](NC(=O)[C@H](Cc2ccccc2)NC(=O)[C@@H](NC(=O)CNC(=O)[C@H](CCC(=O)O)NC(=O)CNC(=O)[C@@H](N)Cc2c[nH]cn2)[C@@H](C)O)[C@@H](C)O)C(C)C)C(=O)N[C@@H](C)C(=O)N[C@@H](C)C(=O)N[C@@H](CCCCN)C(=O)N1)C(=O)N[C@@H](C)C(=O)N[C@@H](Cc1c[nH]c2ccccc12)C(=O)N[C@@H](CC(C)C)C(=O)N[C@H](C(=O)N[C@@H](CCCCN)C(=O)NCC(=O)N[C@@H](CCCNC(=N)N)C(=O)NCC(N)=O)C(C)C
[1]
  EC50: 0.008 nM
Plasma
  Stability: Stable
[2]
  IC50: 1.9 nM

## CC[C@H](C)[C@H](NC(=O)[C@@H]1CCCCNC(=O)CC[C@H](NC(=O)[C@H](CCC(N)=O)NC(=O)CNC(=O)[C@H](CCC(=O)O)NC(=O)[C@H](CC(C)C)NC(=O)[C@H](Cc2ccc(O)cc2)NC(=O)[C@H](CO)NC(=O)[C@H](CO)NC(=O)[C@@H](NC(=O)[C@H](CC(=O)O)NC(=O)[C@H](CO)NC(=O)[C@@H](NC(=O)[C@H](Cc2ccccc2)NC(=O)[C@@H](NC(=O)CNC(=O)[C@H](CCC(=O)O)NC(=O)CNC(=O)[C@@H](N)Cc2c[nH]cn2)[C@@H](C)O)[C@@H](C)O)C(C)C)C(=O)N[C@@H](C)C(=O)N[C@@H](CCCCN)C(=O)N[C@@H](CCC(=O)O)C(=O)N1)C(=O)N[C@@H](C)C(=O)N[C@@H](Cc1c[nH]c2ccccc12)C(=O)N[C@@H](CC(C)C)C(=O)N[C@H](C(=O)N[C@@H](CCCCN)C(=O)NCC(=O)N[C@@H](CCCNC(=N)N)C(=O)NCC(N)=O)C(C)C
[1]
  EC50: 0.74 nM
[2]
  IC50: 290 nM

## CC[C@H](C)[C@H](NC(=O)[C@H](Cc1ccccc1)NC(=O)[C@H](CCC(=O)O)NC(=O)[C@H](CCCCN)NC(=O)[C@H](C)NC(=O)[C@@H]1CCCCNC(=O)CC[C@H](NC(=O)[C@H](Cc2ccc(O)cc2)NC(=O)[C@H](CO)NC(=O)[C@H](CO)NC(=O)[C@@H](NC(=O)[C@H](CC(=O)O)NC(=O)[C@H](CO)NC(=O)[C@@H](NC(=O)[C@H](Cc2ccccc2)NC(=O)[C@@H](NC(=O)CNC(=O)[C@H](CCC(=O)O)NC(=O)CNC(=O)[C@@H](N)Cc2c[nH]cn2)[C@@H](C)O)[C@@H](C)O)C(C)C)C(=O)N[C@@H](CCC(=O)O)C(=O)NCC(=O)N[C@@H](CCC(N)=O)C(=O)N1)C(=O)N[C@@H](C)C(=O)N[C@@H](Cc1c[nH]c2ccccc12)C(=O)N[C@@H](CC(C)C)C(=O)N[C@H](C(=O)N[C@@H](CCCCN)C(=O)NCC(=O)N[C@@H](CCCNC(=N)N)C(=O)NCC(N)=O)C(C)C
[1]
  EC50: 0.45 nM
[2]
  IC50: 26 nM

## CC[C@H](C)[C@H](NC(=O)[C@H](Cc1ccccc1)NC(=O)[C@H](CCC(=O)O)NC(=O)[C@H](CCCCN)NC(=O)[C@@H]1CCCCNC(=O)CC[C@H](NC(=O)[C@H](CC(C)C)NC(=O)[C@H](Cc2ccc(O)cc2)NC(=O)[C@H](CO)NC(=O)[C@H](CO)NC(=O)[C@@H](NC(=O)[C@H](CC(=O)O)NC(=O)[C@H](CO)NC(=O)[C@@H](NC(=O)[C@H](Cc2ccccc2)NC(=O)[C@@H](NC(=O)CNC(=O)[C@H](CCC(=O)O)NC(=O)CNC(=O)[C@@H](N)Cc2c[nH]cn2)[C@@H](C)O)[C@@H](C)O)C(C)C)C(=O)NCC(=O)N[C@@H](CCC(N)=O)C(=O)N[C@@H](C)C(=O)N1)C(=O)N[C@@H](C)C(=O)N[C@@H](Cc1c[nH]c2ccccc12)C(=O)N[C@@H](CC(C)C)C(=O)N[C@H](C(=O)N[C@@H](CCCCN)C(=O)NCC(=O)N[C@@H](CCCNC(=N)N)C(=O)NCC(N)=O)C(C)C
[1]
  EC50: 0.14 nM
[2]
  IC50: 60 nM
